## Antibody variant affinities, Ab-95 light chain, assay 2

Source: Engelhart et al. 2022 (doi:10.1038/s41597-022-01779-4), MIT Lincoln Laboratory and A-Alpha Bio; data file from the FLAb repository.

The target is the same throughout: PDVDLGDISGINAS, from the HR2 region of SARS-CoV-2 spike.

Each scFv is VH, the linker GGGGSGGGGSGGGGS, VL, as in the parent Ab-95, and differs from it in the CDRs of the light chain only.
VH: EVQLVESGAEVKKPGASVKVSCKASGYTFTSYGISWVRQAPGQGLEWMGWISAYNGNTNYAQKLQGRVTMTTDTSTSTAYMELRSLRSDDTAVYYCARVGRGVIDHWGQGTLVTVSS
VL: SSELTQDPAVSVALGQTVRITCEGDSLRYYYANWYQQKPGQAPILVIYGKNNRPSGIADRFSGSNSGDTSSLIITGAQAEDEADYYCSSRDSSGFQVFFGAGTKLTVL

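Phage display of a naive human antibody library on the peptide gave the parent. The library (AAYL52) carries one to three amino acid substitutions per variant, with no insertions or deletions. The assay is AlphaSeq: two haploid yeast populations carry antibody and antigen on their surface. After mating in shaken culture at 30 °C for 16 h, diploids were selected and their barcode pairs sequenced. A regression on co-assayed BCL2-family reference pairs converts the normalised counts of each replicate to an apparent Kd. Each pool was mated in three replicate cultures.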

Each variant is given by its three light chain CDRs, as the data file delimits them; those of the parent are EGDSLRYYYAN, GKNNRPS, SSRDSSGFQVF.
Affinities are written as log10 Kd with Kd in nM; a lower number is a better binder.
"ND" means that the variant was in the library but no mating with the target was seen in that replicate; the authors take this as a sign of poor binding, and no number exists.
As a blank, each scFv also met three strains without target: over library AAYL52, 28% of these pairings were detected, typically at 3.91 and seldom below 2.90.

| log10 Kd, replicates | CDR-L1 | CDR-L2 | CDR-L3 |
|---|---|---|---|
| ND / ND / ND | EGDMLRYYYLN | GKNNRPF | SSRDSSGFQVF |
| ND / ND / ND | EGDSLRYYYAN | GKNNWPS | SARNSSGFQVF |
| 2.48 / 2.61 / 2.27 | EGDSLRYYEAN | GCNNRPS | TSRDSSGFQVF |
| 2.05 / 1.93 / 1.58 | EGDSLRYYGAN | GENYRPS | SSRDSSGFQVF |
| ND / ND / ND | EGDSLREYYKN | GKANRPS | SSRDSSGFQVF |
| 3.12 / 3.36 / 2.72 | IGDGLRYYYAN | GKNNRPS | SSRDSSGGQVF |
| 3.51 / 2.91 / 2.45 | EGSSLRYYYAS | GKNNRPS | SSRDSSGAQVF |
| 3.17 / 4.38 / 3.99 | EGDSLRYYYAN | GKNNRPS | SSNASSGFQVF |
| 5.41 / 3.50 / 3.23 | EKDSLRYYYAN | GHNNRPS | SSRDSSGFQSF |
| 2.68 / 3.49 / 3.65 | EIPSLRLYYAN | GKNNRPS | SSRDSSGFQVF |
| 3.62 / ND / 2.80 | EGCSLRYYYAN | GKNNRPA | SSRDSSGNQVF |
| 3.52 / 3.28 / 2.77 | EADSLRYYYAN | GKNNRPS | SSADSCGFQVF |
| ND / ND / ND | EGDSLRYYYAN | KKNNRPS | SSRDSSGFDRF |
| 2.63 / 3.12 / 4.35 | EGDWLREYYAN | GKNNRPS | SSRDSSGQQVF |
| 4.26 / ND / ND | EGDSLRYYYAN | GKHPRPS | SSRDSSGFTVF |
| ND / ND / ND | EGDSLRYYYAN | GKNNRES | FSRDSSGFQVF |
| 4.41 / 3.08 / 3.17 | EMISLRYYYAN | GKNNRPS | SSRDSSHFQVF |
| 3.60 / 4.46 / ND | EGDSLRYYYAN | GFNNRPS | SSTDSSGFQVR |
| 3.08 / ND / ND | EGDSLRYYIAR | EKNNRPS | SSRDSSGFQVF |
| ND / 4.79 / ND | EGDSLRYYYAN | GEWNRPS | SSRPSSGFQVF |
| 3.52 / 4.87 / 3.65 | ELDRLRYYYAN | GKNNRPS | SSRDSSGFQVM |
| 2.81 / 2.92 / 2.41 | EGDSLRYYYAN | GKNNRVS | SSRDYSGTQVF |
| 2.53 / 2.35 / 2.31 | ECDSLRYYYAN | GKNNRPN | SSRDSSGFQVF |
| 4.12 / 5.54 / ND | EGTSVRYYYAN | GKNNRPS | SSYDSSGFQVF |
| 0.80 / 0.65 / 0.10 | EGDSLRYNYAN | GKNNRPS | GSRDSSGFQVH |
| 2.61 / 2.82 / 1.62 | EGDSLRYYYAN | GKNDRPS | SSRESDGFQVF |
| 4.10 / 4.42 / ND | EGDSLRYYYAN | GKNNRPS | SSSDSSGFIVD |
| ND / 3.96 / ND | EGDSLRYYSAR | GKNNRPS | KSRDSSGFQVF |
| 3.16 / 3.57 / ND | EGDSLRYYAAN | GKNNRPS | QSRDFSGFQVF |
| ND / ND / 2.19 | EGDSLRYYYAN | SLNNRPS | YSRDSSGFQVF |
| 2.95 / 3.10 / 3.58 | EGDSIRYYYAV | GKNNRPS | SSRDKSGFQVF |
| 1.49 / 1.45 / 1.44 | EGDSLRYTYAN | GKNNRPS | SGRDSSGFQVH |
| 4.34 / 3.63 / 3.06 | EGDQLRYYYAN | GKNNRPS | SSRDSSFFQVF |
| 3.29 / 3.87 / 3.39 | EVDSLRYYYAN | GKNNRVK | SSRDSSGFQVF |
| 1.91 / 2.18 / 1.95 | EGDSCRYYYAN | GKNNKPS | SHRDSSGFQVF |
| ND / 3.85 / 3.58 | EGDSLRYYYAQ | GKNNRPS | KSYDSSGFQVF |
| ND / ND / ND | EGDSLRYYYRN | GENNRWS | SSRDSSGFQVF |
| 1.74 / 2.56 / 1.72 | EGDSLRYNYAN | GKNNRPY | WSRDSSGFQVF |
| ND / ND / 4.13 | EGDSDRYYYAN | WKNNRPS | SSRDSSGNQVF |
| 4.22 / 4.50 / ND | EGDSLRYYYAN | GKNNDPS | SKRDTSGFQVF |
| ND / ND / ND | EGWSLRYYYAN | MKNKRPS | SSRDSSGFQVF |
| 3.33 / ND / ND | EGDSLRYYYAN | GKNKRPS | SSRDSMGFQVT |
| 2.10 / 1.90 / 1.50 | EGDSLRYYYAN | GKNLRPS | SSRDWSGFQVF |
| ND / ND / ND | EGDSLRYYYGN | GKNNRPS | SERDSSGFQGF |
| ND / ND / ND | EGDSLRYYYAH | GKNNRCS | SSRDSSGFQQF |
| 2.74 / 3.17 / 2.97 | EEDSLLYYYAN | GKNNRPS | SSRDSSGFQVF |
| ND / ND / ND | EGDSKRYYYAN | GKNNRPS | SSRDSFGFQVI |
| 3.67 / 3.66 / ND | EGDSLRPYYAN | GKNNRPC | SSCDSSGFQVF |